Source: US4939175A, “Use of N,N-dimethyl-1-[1-(4-chlorophenyl)cyclobutyl]-3-methylbutylamine” (priority 1988, dated 1990)

Experiments:
[1] = system: re-uptake of ^3 H-dopamine; assay: Re-uptake of 3H-dopamine in vitro (synaptosomes, P2 fraction of whole brain); assay type: biochemical, Std: Wistar strain male rat; details: Experiment II, rat brain synaptosomes, 37° C., 20 minutes
Method: Effect of the test samples on the re-uptake of ^3 H-dopamine in vitro
P2 fraction was prepared from the whole brain of Std: Wistar strain male rat. […] The obtained mixture was incubated at 37° C. for 20 minutes and then subjected to the suction filtration with Whatman GF/B filter paper.
The obtained filter paper was put in a vial containing 10 ml of toluene type scintillator and its radioactivity was measured by means of liquid scintillation counter. The amount of the specific re-uptake of ^3 H-dopamine was obtained by subtracting the amount of re-uptake at 0° C. as blank.

[2] = system: depletion of dopamine induced by MPTP in mice whole brain; set-up: species or system SlC: ddy strain male mice; details: mouse, in vivo

## CN(C)CC/C=C1\c2ccccc2CSc2ccccc21 [Dosulepin, dosulepin]
[1]
  IC50: 9.6 µM

## O=C(O)/C=C\C(=O)O.c1csc(Cc2ccccc2OCC2CNCCO2)c1 (centres unmarked) [Sufoxazine, sufoxazine]
[2]
  Percentage of the amount of dopamine in the treated group against the amount of dopamine in the non-treated group: 76 ± 17% and 68 ± 14%

“And” between values parts separate entries of the source, which are not always exact repeats. Equal values may be shown once.
